Measured values as given in US20190315775A1, “MODIFIED […] AND PHARMACEUTICAL COMPOSITION HAVING SAME AS ACTIVE INGREDIENT” (KEIO UNIVERSITY, priority 2016, published 2019).
Entries after “also recorded” stand apart in the source; their conditions may differ.

System: various high-risk MM cells (KMM1, KMS11, KMS21, KMS26, KMS27, KMS28, KMS34, MUM24)
Assay: MTT cell viability of various MM cells, PEG11(E)-TC11 vs lenalidomide (Example 9)
Format: cell-based, human
Details: including high-risk MM cells KMS11, KMS28, KMS34, 0-100 μM, 48 hours, FIG. 5B
Excerpt: MM cell lines (KMM1, KMS11, KMS21, KMS26, KMS27, KMS28, KMS34) used herein were those established by Takemi Otsuki et al., of Kawasaki Medical School (Otsuki, T. et al., Int. J. Oncol., 15: 1205-1212, 1999).

Structure (SMILES): Nc1cccc2c1CN(C1CCC(=O)NC1=O)C2=O (stereo not shown) [lenalidomide]
- In vitro cell proliferation inhibitory activity against myeloma cells other than KMS21 and MUM24: did not exhibit in vitro cell proliferation inhibitory activity; also recorded: no in vitro cell proliferation inhibitory activity
